The entries are a selection whose mix differs from that of the whole data set. Records with an inconclusive call do not appear. The source made the active and inactive calls. Calls follow the shape of the dose curve; as a rule, active = well fitted inhibition curve with a large enough effect; inconclusive = small, poorly fitted or top-dose-only effect; inactive = no such curve, though single readings can be large or run the other way.

Sequences of proteins named here, by UniProt entry; tags and fusion partners are left off.
UniProt P27695, whole entry, looked up: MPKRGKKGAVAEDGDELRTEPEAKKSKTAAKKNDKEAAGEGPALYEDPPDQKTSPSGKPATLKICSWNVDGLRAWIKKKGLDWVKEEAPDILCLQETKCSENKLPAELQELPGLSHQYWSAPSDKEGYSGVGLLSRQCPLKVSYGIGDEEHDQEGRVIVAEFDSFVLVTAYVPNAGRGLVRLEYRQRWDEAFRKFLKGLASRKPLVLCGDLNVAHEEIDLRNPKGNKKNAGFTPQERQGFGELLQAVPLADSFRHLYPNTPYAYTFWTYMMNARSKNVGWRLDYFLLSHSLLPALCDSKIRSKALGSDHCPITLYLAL

This note sets out measurements from PubChem BioAssay AID2517 (National Center for Advancing Translational Sciences (NCATS), 2010).

This experiment concerns the target DNA repair nuclease/redox regulator APEX1 (Homo sapiens) (UniProt P27695). Nature of the experiment: qHTS Assay for Inhibitors of the Human Apurinic/apyrimidinic Endonuclease 1 (APE1).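 Also: plate controls were vehicle for no effect and reference inhibitor for full effect; nearly all actives have a fitted effect of over 55% in size.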 The note with it: recombinant APE1, TAMRA/BHQ-2 abasic DNA cleavage fluorescence; series mostly up to 65.8 µM; activity change, negative = inhibition: at the top concentration.
Consider `COc1cc(C(=O)NCC2(N3CCOCC3)CCCCC2)ccc1OCC(C)C`, for which the “activity change, negative = inhibition” value was inactive: -19.1%.

`C[As](=O)(O)c1cccc(C(=O)O)c1`: the “activity change, negative = inhibition” value is inactive: 56.9%.

As for `CCN(N=Nc1nonc1N)c1nonc1N`, the “activity change, negative = inhibition” value was inactive: -0.712%.

In the case of `O=[N+]([O-])c1cc([N+](=O)[O-])c(CCN2CCOCC2)c([N+](=O)[O-])c1`, the “activity change, negative = inhibition” value was inactive: 12.9%.

Turning to `Cc1ccc(NP(=O)(Oc2ccccc2F)Oc2ccccc2F)nc1`, the “activity change, negative = inhibition” value was inactive: -2.85%.

As to `CCOP(=O)(Nc1ccccc1)OCC`, the Potency result was “inactive”.

Regarding `Cc1cc(SC(NC(=O)c2ccc(F)cc2)C(Cl)(Cl)Cl)ncn1` (centres undefined), the “activity change, negative = inhibition” value was inactive: -0.362%.

In the case of `O=C(O)c1ccccc1[As](=O)(O)O`, the “activity change, negative = inhibition” value was inactive: -2.24%.

Turning to `CC(=O)Nc1ccc([As](=O)(O)O)cc1`, the “activity change, negative = inhibition” value is inactive: 4.08%.

For the compound `O=P(Nc1nc2ccc(Cl)cc2s1)(c1ccccc1)c1ccccc1`, the “activity change, negative = inhibition” value was inactive: 0.582%.

Consider `CC(C)CC(=O)NC(Sc1ccc(Cl)cc1)C(Cl)(Cl)Cl` (centres undefined), for which the “activity change, negative = inhibition” value was inactive: 0.108%.

With `Cc1c2non([O-])c-2c(C)[n+](=O)[n+]1[O-]`, the “activity change, negative = inhibition” value was inactive: -2.95%.

For `O=C(NC(Sc1ccncn1)C(Cl)(Cl)Cl)c1ccccc1` (centres undefined), the “activity change, negative = inhibition” value was inactive: 7.18%.

Turning to `Cc1ccc(OP(=O)(Nc2nccs2)Oc2ccc(C)cc2)cc1`, the “activity change, negative = inhibition” value is inactive: -0.203%.

Regarding `COc1ccccc1OP(=O)(Nc1ccc(C)cn1)Oc1ccccc1OC`, the “activity change, negative = inhibition” value was inactive: -0.762%.

Regarding `CN1CCCC(OC(=O)C(c2ccccc2)c2ccccc2)C1` (centres undefined), the “activity change, negative = inhibition” value was inactive: 29.4%.

For the compound `NC(=O)c1cc([N+](=O)[O-])cc([N+](=O)[O-])c1N`, the “activity change, negative = inhibition” value is inactive: -6.08%.

On to `Cc1ccc(N/C(=N/P(=O)(N2CCOCC2)N2CCOCC2)N2CCOCC2)cc1`, for which the “activity change, negative = inhibition” value was inactive: -7.75%.

Take `CN(C)C(=O)OCCc1n(C)cc[n+]1C`: the “activity change, negative = inhibition” value was inactive: 4.77%.

For `CC(=O)C1=CCCC2CCC1N2` (centres undefined), the Potency entry was “inactive”.

In the case of `CC1CCN(C(=O)Oc2c(Cl)cc(Cl)c3cccnc23)CC1`, the “activity change, negative = inhibition” value is inactive: -4.18%.

Consider `Nc1ccc([As](=O)(O)c2ccc(N)cc2)cc1`, for which the “activity change, negative = inhibition” value was inactive: 3.17%.

As to `CCN(/C(=N/P(=O)(N1CCOCC1)N1CCOCC1)N1CCOCC1)c1ccc(OC)cc1`, the “activity change, negative = inhibition” value was inactive: 2.27%.

For `CC(=O)N1C2C3N(C(C)=O)C1C1N(C(C)=O)C(C(N1C(C)=O)N3C(C)=O)N2C(C)=O`, the “activity change, negative = inhibition” value is inactive: -1.02%.

For `O=[N+]([O-])c1cccc2n[nH]nc12`, the “activity change, negative = inhibition” value was inactive: 14.5%.

For `O=[N+]([O-])c1cc([N+](=O)[O-])c(CCNc2ccccc2)c([N+](=O)[O-])c1`, the “activity change, negative = inhibition” value is inactive: -1.72%.

As for `Cc1ccc(NP(=O)(Oc2ccccc2)Oc2ccccc2)nc1`, the “activity change, negative = inhibition” value is inactive: 5.44%.

Turning to `COc1ccc(C2=NCC(CBr)S2)cc1` (centres undefined), the “activity change, negative = inhibition” value was inactive: -2.67%.

For the compound `O=[N+]([O-])c1cccc(NC2=NCC(CBr)S2)c1` (centres undefined), the “activity change, negative = inhibition” value is inactive: 0.825%.

With `O=C(O)CNc1ccc([As](=O)(O)O)cc1`, the “activity change, negative = inhibition” value was inactive: -0.829%.

On to `CC(C)(C)C(=O)NC(Sc1ccncn1)C(Cl)(Cl)Cl` (centres undefined), for which the “activity change, negative = inhibition” value is inactive: -1.34%.

Regarding `O=[N+]([O-])c1ncn(CCn2ncnc2[N+](=O)[O-])n1`, the “activity change, negative = inhibition” value is inactive: -17.2%.

With `O=C(Nc1cc([As](=O)(O)O)ccc1O)c1ccccc1`, the “activity change, negative = inhibition” value was inactive: -9.15%.

As for `Nc1ccc([As](=O)(O)c2ccc([N+](=O)[O-])cc2)cc1`, the “activity change, negative = inhibition” value is inactive: 1.55%.

On to `O=C(OC1CN2CCC1CC2)c1cccc(Cl)c1` (centres undefined), for which the “activity change, negative = inhibition” value is inactive: -1.65%.

As to `CC(=O)NC(SC(=S)N(C)C)C(Cl)(Cl)Cl` (centres undefined), the “activity change, negative = inhibition” value is inactive: -0.761%.

Take `O=[N+]([O-])c1ncn(CCn2cnc([N+](=O)[O-])n2)n1`: the “activity change, negative = inhibition” value is inactive: -4.59%.

Turning to `O=[N+]([O-])c1ccc(O)c(/C=N/Nc2ccc([N+](=O)[O-])cc2[N+](=O)[O-])c1`, the “activity change, negative = inhibition” value is inactive: -21.5%.

For `O=[As](O)(c1ccccc1)c1ccc(O)cc1`, the “activity change, negative = inhibition” value was inactive: 1.77%.

Take `C[C@H]1OP(=O)(Oc2ccccc2)[C@H](O)[C@H](O)[C@H]1N=[N+]=[N-]` (some centres undefined): the “activity change, negative = inhibition” value is inactive: -1.1%.

For `O=P(Nc1nc2ccccc2s1)(c1ccccc1)c1ccccc1`, the “activity change, negative = inhibition” value is inactive: 4.11%.

Turning to `CN(C(=O)Cc1ccccc1)[C@H]1CC[C@@]2(CCCO2)C[C@@H]1N1CCCC1`, the “activity change, negative = inhibition” value is inactive: 15%.

As for `Cc1cc([N+](=O)[O-])cc([N+](=O)[O-])c1O`, the “activity change, negative = inhibition” value was inactive: -0.29%.

Turning to `O=P(Nc1ccccn1)(c1ccc(Br)cc1)c1ccc(Br)cc1`, the “activity change, negative = inhibition” value is inactive: 2.82%.

`CCC(C)(OOC(C)(C)C)OOC(C)(C)C`: the “activity change, negative = inhibition” value was inactive: -4.9%.

For `O=P(Nc1nccs1)(c1ccccc1)c1ccccc1`, the “activity change, negative = inhibition” value was inactive: -0.048%.

On to `CC(C)C(=O)NC(Sc1ccccc1)C(Cl)(Cl)Cl` (centres undefined), for which the “activity change, negative = inhibition” value is inactive: 1.26%.

On to `CC(=O)Nc1ccc(Oc2c([N+](=O)[O-])cc([N+](=O)[O-])cc2[N+](=O)[O-])cc1`, for which the “activity change, negative = inhibition” value is inactive: 1.55%.

As for `CC(=O)Nc1ccc([As](=O)(O)O)c(O)c1`, the “activity change, negative = inhibition” value was inactive: -3.13%.

For `CC(=O)c1ccc(N2CC2c2ccncc2)cc1` (centres undefined), the “activity change, negative = inhibition” value was inactive: 15.5%.

Consider `C[C@@H]1C=CCP(=O)(Oc2ccccc2)O1` (some centres undefined), for which the “activity change, negative = inhibition” value is inactive: -0.306%.

With `C[C@H]1OP(=O)(Oc2ccccc2)C[C@@H]2O[C@@H]21` (some centres undefined), the “activity change, negative = inhibition” value was inactive: 0.132%.

As for `Cc1ccccc1CN(C)C(=O)COC(=O)C(O)(c1ccccc1)c1ccccc1`, the “activity change, negative = inhibition” value is inactive: -9.47%.

For `CC(C)(C)C(=O)NC(Sc1ccccc1)C(Cl)(Cl)Cl` (centres undefined), the “activity change, negative = inhibition” value was inactive: -5.78%.

Regarding `CCOc1ccc(C2=NCC(CBr)S2)cc1` (centres undefined), the “activity change, negative = inhibition” value was inactive: -2.82%.

As for `O=P1(Nc2nc3ccc(Cl)cc3s2)COc2ccccc2O1` (centres undefined), the “activity change, negative = inhibition” value is inactive: -1.63%.

Regarding `CN(C)C(=O)Oc1noc2ccccc12`, the “activity change, negative = inhibition” value is inactive: 12.8%.

On to `O=c1c2cc([N+](=O)[O-])ccc2[nH]c2c([N+](=O)[O-])cc([N+](=O)[O-])cc12`, for which the “activity change, negative = inhibition” value is inactive: 3.08%.

On to `CC(NC(=O)COC(=O)C(O)(c1ccccc1)c1ccccc1)c1ccccc1` (centres undefined), for which the “activity change, negative = inhibition” value is inactive: 49.1%.

Turning to `CC(=O)NC(SC(=S)N(CC(C)C)CC(C)C)C(Cl)(Cl)Cl` (centres undefined), the “activity change, negative = inhibition” value was inactive: 1.88%.

Turning to `Cc1ccc(OP(=O)(Nc2ccccn2)Oc2ccc(C)cc2)cc1`, the “activity change, negative = inhibition” value is inactive: -4.41%.

Turning to `COC(=O)c1cc2c(s1)N=C(c1ccccc1)N(C)P2(=O)N1CCOCC1` (centres undefined), the “activity change, negative = inhibition” value is inactive: 9.86%.

Take `CCC(=O)N1C2C3N(C(=O)CC)C1C1N(C(=O)CC)C(C(N1C(=O)CC)N3C(=O)CC)N2C(=O)CC`: the “activity change, negative = inhibition” value is inactive: -3.18%.

For `O=C(OC1CN2CCC1CC2)c1ccccc1` (centres undefined), the “activity change, negative = inhibition” value was inactive: -11.7%.

For `O=C(NC1CCS(=O)(=O)C1)NP(=S)(Oc1ccccc1)Oc1ccccc1` (centres undefined), the “activity change, negative = inhibition” value is inactive: -0.356%.

On to `CCNC(=S)/N=C(\N)N[N+](=O)[O-]`, for which the “activity change, negative = inhibition” value is inactive: -7.71%.

For the compound `Cc1ccc(NP(=O)(Oc2cccc(C)c2)Oc2cccc(C)c2)nc1`, the “activity change, negative = inhibition” value is inactive: 12.2%.

In the case of `CCOC(=O)NC(Sc1ccccc1)C(Cl)(Cl)Cl` (centres undefined), the “activity change, negative = inhibition” value was inactive: -4.89%.

As to `c1ccc(-c2nn[nH]n2)c(-c2nn[nH]n2)c1`, the “activity change, negative = inhibition” value is inactive: 3.65%.
